Biological target: Human-derived DNA-PK (Homo sapiens, UniProt P78527)
Assay: DNA-dependent protein kinase (DNA-PK) inhibitory activity screening experiment (Eurofins, HTRF)
Type: biochemical
Details: read-out: DNA-PK kinase inhibitory activity IC50; ATP: 10 μM; 50 nM GST-cMyc-p53; 30 minutes at room temperature

Protein sequences, listed by entry. Tags and fused reporters are not part of them.
UniProt P78527, whole entry: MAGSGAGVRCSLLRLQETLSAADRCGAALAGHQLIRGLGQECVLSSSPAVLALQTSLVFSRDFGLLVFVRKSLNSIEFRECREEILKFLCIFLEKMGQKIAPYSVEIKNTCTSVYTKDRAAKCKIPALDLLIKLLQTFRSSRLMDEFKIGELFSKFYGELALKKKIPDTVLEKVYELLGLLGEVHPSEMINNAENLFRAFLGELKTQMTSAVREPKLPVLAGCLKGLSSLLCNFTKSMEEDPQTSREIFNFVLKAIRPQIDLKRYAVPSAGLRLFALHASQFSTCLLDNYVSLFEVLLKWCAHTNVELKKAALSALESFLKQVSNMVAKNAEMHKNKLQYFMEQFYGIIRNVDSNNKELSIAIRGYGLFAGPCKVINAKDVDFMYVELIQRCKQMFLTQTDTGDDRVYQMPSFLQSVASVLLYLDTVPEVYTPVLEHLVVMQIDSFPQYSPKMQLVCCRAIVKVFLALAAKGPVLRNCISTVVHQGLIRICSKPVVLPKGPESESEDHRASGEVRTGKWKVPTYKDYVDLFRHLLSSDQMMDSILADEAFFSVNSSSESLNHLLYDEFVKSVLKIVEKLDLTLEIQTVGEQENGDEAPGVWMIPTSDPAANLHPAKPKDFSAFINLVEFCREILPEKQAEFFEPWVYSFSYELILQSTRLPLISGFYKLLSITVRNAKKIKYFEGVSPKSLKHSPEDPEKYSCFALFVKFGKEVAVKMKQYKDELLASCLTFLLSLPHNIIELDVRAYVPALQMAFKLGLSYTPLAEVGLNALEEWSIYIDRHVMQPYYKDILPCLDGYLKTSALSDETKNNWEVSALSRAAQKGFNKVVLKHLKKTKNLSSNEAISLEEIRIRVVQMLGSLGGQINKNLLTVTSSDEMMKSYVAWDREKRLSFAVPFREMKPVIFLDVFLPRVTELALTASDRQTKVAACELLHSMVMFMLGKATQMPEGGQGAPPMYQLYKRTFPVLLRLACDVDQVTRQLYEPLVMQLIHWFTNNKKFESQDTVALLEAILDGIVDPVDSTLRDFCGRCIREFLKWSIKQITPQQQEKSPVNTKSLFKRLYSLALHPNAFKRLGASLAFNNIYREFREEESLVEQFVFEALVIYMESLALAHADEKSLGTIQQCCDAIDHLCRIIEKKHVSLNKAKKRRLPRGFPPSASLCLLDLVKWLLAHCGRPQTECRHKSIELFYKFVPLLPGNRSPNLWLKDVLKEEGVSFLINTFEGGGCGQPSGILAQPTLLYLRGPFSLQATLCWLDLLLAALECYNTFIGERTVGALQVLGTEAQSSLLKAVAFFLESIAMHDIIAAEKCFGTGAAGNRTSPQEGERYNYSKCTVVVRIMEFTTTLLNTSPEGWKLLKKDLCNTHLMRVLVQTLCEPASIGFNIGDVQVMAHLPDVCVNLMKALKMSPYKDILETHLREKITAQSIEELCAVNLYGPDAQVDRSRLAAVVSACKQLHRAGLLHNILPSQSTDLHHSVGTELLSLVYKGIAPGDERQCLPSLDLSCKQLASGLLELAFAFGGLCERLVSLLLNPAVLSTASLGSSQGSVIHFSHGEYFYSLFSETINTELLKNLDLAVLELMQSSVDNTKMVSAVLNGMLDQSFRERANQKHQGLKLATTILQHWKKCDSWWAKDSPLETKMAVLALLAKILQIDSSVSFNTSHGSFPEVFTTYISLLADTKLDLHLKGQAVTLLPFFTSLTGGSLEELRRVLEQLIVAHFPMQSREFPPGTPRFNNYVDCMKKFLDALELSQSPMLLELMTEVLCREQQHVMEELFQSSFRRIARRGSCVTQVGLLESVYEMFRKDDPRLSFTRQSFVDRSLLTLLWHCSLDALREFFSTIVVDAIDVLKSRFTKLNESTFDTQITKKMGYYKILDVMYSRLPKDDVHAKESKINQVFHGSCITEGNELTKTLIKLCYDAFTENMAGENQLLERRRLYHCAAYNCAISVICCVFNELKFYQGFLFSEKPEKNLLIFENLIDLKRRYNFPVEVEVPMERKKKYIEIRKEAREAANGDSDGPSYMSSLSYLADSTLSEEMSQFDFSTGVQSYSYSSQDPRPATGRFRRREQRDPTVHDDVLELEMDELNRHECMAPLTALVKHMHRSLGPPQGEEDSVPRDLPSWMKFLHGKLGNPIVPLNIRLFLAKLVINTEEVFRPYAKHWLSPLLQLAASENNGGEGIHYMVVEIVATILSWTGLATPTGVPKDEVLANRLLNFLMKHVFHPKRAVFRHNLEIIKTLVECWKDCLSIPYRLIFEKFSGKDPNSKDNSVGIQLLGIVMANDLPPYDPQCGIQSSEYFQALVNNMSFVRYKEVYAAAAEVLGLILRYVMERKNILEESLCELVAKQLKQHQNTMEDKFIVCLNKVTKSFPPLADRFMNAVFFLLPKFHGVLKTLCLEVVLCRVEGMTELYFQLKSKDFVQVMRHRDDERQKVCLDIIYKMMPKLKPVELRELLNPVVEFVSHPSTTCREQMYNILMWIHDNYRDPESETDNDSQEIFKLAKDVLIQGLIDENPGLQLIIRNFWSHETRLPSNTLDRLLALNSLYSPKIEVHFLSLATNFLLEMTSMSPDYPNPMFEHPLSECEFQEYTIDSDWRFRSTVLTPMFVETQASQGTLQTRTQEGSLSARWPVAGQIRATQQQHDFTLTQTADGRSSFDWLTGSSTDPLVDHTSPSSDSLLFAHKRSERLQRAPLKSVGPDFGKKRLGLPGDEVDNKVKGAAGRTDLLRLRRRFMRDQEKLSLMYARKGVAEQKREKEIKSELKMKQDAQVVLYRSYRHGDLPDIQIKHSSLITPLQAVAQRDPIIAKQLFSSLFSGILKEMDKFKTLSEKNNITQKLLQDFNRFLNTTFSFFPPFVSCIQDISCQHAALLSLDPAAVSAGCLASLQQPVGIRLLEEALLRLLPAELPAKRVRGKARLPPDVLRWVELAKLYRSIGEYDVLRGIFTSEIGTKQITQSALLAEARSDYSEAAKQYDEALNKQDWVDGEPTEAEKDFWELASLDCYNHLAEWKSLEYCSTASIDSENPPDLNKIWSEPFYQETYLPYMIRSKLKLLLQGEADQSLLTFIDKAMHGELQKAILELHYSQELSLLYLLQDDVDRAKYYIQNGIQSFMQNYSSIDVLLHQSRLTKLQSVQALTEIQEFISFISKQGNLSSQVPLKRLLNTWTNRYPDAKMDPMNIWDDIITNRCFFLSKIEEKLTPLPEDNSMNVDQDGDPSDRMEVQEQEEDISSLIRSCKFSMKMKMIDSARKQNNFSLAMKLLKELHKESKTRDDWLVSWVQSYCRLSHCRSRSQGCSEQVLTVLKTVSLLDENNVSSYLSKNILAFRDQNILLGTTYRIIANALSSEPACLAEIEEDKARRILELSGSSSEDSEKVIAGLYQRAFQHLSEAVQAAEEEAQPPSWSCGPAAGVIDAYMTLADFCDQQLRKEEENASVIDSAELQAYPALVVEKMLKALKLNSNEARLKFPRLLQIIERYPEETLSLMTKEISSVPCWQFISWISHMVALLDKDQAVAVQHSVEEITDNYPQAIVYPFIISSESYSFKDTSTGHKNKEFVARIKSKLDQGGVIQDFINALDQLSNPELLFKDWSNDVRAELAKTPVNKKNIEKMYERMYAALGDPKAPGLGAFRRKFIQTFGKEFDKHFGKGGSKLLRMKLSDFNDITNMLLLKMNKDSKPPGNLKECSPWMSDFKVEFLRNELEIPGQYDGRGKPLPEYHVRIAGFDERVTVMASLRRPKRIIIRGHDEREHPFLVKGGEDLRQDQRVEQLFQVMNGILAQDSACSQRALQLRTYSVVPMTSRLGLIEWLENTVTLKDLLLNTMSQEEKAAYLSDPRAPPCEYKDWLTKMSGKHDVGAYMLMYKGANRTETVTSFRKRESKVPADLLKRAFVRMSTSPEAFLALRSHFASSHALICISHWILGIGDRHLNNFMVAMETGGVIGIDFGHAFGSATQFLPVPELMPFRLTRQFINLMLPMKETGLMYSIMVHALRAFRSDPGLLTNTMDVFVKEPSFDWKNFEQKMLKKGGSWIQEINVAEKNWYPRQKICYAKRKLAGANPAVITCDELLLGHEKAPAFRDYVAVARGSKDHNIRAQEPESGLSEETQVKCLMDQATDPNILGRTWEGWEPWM
UniProt P12956, whole entry partner: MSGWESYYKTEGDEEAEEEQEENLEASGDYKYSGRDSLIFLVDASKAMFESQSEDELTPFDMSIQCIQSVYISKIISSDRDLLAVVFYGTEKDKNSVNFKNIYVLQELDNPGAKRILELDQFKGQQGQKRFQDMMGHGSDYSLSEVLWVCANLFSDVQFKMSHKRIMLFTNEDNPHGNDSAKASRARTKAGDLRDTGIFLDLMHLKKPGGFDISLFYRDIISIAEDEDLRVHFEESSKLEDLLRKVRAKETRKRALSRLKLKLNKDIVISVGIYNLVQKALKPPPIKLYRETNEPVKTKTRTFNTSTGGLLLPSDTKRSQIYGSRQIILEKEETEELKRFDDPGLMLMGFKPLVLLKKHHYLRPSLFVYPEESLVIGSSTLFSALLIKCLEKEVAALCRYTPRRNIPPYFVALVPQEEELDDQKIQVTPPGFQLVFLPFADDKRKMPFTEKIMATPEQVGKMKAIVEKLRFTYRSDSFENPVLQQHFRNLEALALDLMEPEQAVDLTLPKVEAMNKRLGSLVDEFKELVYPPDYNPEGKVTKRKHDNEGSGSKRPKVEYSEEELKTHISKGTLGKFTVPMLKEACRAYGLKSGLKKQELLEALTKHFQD
UniProt P13010, whole entry partner: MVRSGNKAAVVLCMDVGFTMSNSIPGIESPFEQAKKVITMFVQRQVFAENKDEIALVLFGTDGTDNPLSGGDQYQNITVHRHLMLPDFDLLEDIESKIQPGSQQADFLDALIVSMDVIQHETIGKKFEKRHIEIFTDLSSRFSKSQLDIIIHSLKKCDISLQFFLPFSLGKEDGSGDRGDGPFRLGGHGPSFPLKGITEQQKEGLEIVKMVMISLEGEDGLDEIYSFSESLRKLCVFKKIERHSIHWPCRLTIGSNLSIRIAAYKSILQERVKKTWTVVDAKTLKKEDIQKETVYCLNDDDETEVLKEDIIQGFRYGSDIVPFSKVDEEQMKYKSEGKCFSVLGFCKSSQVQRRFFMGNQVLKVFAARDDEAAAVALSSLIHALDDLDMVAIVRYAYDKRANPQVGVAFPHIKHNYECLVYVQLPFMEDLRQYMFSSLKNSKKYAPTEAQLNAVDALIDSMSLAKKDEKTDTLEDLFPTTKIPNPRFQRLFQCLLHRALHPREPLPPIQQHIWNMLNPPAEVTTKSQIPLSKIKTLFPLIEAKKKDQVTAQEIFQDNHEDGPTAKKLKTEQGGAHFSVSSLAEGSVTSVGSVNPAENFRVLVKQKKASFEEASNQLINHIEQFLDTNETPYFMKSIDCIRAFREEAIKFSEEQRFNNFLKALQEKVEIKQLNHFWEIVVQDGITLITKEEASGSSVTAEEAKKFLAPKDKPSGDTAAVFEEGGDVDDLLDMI

## Cc1cc2ncnn2cc1Nc1ncc2c(n1)C1(CCC3(CCO3)CC1)C(=O)N2C (single isomer, unassigned) [Compound 25]
  IC50: 6 nM

## Cc1cc2ncnn2cc1Nc1ncc2c(n1)C1(CCC3(CCO3)CC1)C(=O)N2C (single isomer, unassigned) [Compound 26]
  IC50: 3 nM
